# According to PubChem BioAssay AID2599 (Sanford-Burnham Center for Chemical Genomics, 2010):
# Sequences of proteins named here, by UniProt entry; tags and fusion partners are left off. A change or cut given only in a name is not applied to a line headed by its entry.
# UniProt Q9GZR1: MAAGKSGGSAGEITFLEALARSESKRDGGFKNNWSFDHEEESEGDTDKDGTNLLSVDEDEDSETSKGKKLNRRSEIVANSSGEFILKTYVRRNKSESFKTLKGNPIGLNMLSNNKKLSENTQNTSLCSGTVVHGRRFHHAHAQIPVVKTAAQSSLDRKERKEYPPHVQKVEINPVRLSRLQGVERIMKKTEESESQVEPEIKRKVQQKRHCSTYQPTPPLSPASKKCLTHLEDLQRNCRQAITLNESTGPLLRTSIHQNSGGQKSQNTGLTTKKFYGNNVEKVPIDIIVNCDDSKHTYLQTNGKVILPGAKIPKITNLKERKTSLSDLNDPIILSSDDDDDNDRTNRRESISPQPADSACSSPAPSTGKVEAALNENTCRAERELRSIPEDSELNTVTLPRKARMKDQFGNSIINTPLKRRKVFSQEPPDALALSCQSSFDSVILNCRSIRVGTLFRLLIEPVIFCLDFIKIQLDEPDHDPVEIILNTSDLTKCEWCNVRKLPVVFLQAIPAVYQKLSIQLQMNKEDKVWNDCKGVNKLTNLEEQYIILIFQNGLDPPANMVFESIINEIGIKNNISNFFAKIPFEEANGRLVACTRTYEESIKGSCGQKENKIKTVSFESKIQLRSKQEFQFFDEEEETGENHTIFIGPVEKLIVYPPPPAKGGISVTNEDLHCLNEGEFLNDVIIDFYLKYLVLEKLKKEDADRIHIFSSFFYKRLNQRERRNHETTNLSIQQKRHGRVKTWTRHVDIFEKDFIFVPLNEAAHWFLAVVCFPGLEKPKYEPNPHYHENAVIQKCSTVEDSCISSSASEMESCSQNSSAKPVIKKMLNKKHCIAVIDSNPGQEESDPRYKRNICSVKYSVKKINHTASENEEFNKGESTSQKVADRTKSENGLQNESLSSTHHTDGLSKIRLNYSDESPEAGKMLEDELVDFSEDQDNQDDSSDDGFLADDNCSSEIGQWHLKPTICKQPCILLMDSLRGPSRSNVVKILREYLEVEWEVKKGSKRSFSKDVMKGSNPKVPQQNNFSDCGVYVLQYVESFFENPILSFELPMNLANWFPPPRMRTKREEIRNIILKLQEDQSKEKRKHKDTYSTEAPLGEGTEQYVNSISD
# This is a selection; strong and weak results do not stand in their true shares. Calls of active or inactive are those of the source.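 Rule for the calls: active = inhibition above about 50% at the single tested dose (limit read from the data); inactive = the rest.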
# Biological target: Sentrin-specific protease 6 (Homo sapiens) (UniProt Q9GZR1)
# Assay: inhibition of human SENP6 catalytic domain – biochemical, luminescence, uHTS, primary screen (AID 2599);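 note: plate controls were DMSO wells with enzyme for no effect and DMSO wells lacking enzyme for full effect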
# Conditions: Recombinant SENP6 catalytic domain, aminoluciferin luminescence; at 10 µM; stronger effect = higher value
row,SMILES,inhibition
1,CCOC(=O)Nc1ccc([As](=O)(O)O)c(O)c1,inactive: -2.45%
2,Cc1cc(SC(NC(=O)c2ccccc2)C(Cl)(Cl)Cl)nc(C(C)C)n1 (centres undefined),inactive: 6.46%
3,CCCCOc1ccc(C(=O)NCC2(N3CCCCC3)CCCCC2)cc1OC,inactive: -11.6%
4,CCOC(=O)Nc1cccc([As](=O)(O)O)c1,inactive: 9.23%
5,O=P(Nc1ccccn1)(c1cccc2ccccc12)c1cccc2ccccc12,inactive: -31.4%
6,Cc1cc(SC(NC=O)C(Cl)(Cl)Cl)ncn1 (centres undefined),inactive: -13.1%
7,COP1(=S)c2c(C)nn(CCC#N)c2N=C(c2ccc(F)cc2)N1C (centres undefined),inactive: -1.56%
8,O=C(Nc1ccncc1[N+](=O)[O-])c1ccc([N+](=O)[O-])cc1[N+](=O)[O-],inactive: 3.18%
9,O=C(COc1ccccc1)OC1CN2CCC1CC2 (centres undefined),inactive: -5.1%
10,CCOC(=O)c1ccc(NC(=O)C(C)(CCl)SC)cc1 (centres undefined),inactive: -0.11%
11,O=C(OC1CN2CCC1CC2)c1cccc([N+](=O)[O-])c1 (centres undefined),inactive: 2.86%
12,CCC(C)N(CC(C)C)C(=S)SC(NC(C)=O)C(Cl)(Cl)Cl (centres undefined),inactive: -3.94%
13,Cc1cc(=O)[nH]c(N[N+](=O)[O-])n1,inactive: -2.95%
14,O=C(OC1CN2CCC1CC2)C12CC3CC(CC(C3)C1)C2 (centres undefined),inactive: -15.7%
15,Cc1c2c(nc3ccccc13)SC(C(Cl)Cl)C2 (centres undefined),inactive: -23.4%
16,COc1cc(I)ccc1[As](=O)(O)O,inactive: -19.6%
17,COc1ccc2nc(NP(=O)(c3ccccc3)c3ccccc3)sc2c1,inactive: 0.449%
18,COc1ccc(N/C(=N/P(=O)(N2CCOCC2)N2CCOCC2)N2CCOCC2)cc1,inactive: 5.19%
19,COc1cc(C(=O)NCC2(N3CCOCC3)CCCCC2)ccc1OCC(C)C,inactive: -8.9%
20,C[As](=O)(O)c1cccc(C(=O)O)c1,inactive: -0.235%
21,O=[As](O)(c1ccc(O)cc1)c1ccccc1O,inactive: -10.2%
22,Cc1ccc2nc3c(c(C)c2c1)CC(C(Cl)Cl)S3 (centres undefined),inactive: -20.3%

row,SMILES,inhibition
1,CC(C)c1ccc(OP(=O)(Nc2ccccn2)Oc2ccccc2F)cc1 (centres undefined),inactive: -7.89%
2,ClCCSc1nnc(-c2cccnc2)o1,inactive: 7.09%
3,O=[N+]([O-])c1cc([N+](=O)[O-])c(-c2ccn[nH]2)s1,inactive: 15.6%
4,CC(C)NC(=O)NP(=O)(Oc1ccccc1)Oc1ccccc1,inactive: 6.61%
5,CCN(CC)C(=S)SC(NC=O)C(Cl)(Cl)Cl (centres undefined),inactive: 4.72%
6,O=C(OC1CN2CCC1CC2)c1cccc2[nH]cnc12 (centres undefined),inactive: 9.04%
7,CS(=O)(=O)c1cc([N+](=O)[O-])c2no[n+]([O-])c2c1,inactive: 0.988%
8,O=P(Nc1nccs1)(Oc1ccccc1)Oc1ccccc1,inactive: -13.3%
9,O=P(Nc1nccs1)(c1ccccc1)c1nc2ccccc2s1 (centres undefined),inactive: -16.7%
10,CCOP1(=S)c2c(C)nn(CCC#N)c2N=C(c2ccccc2F)N1C (centres undefined),inactive: -0.498%
11,Nc1ccccc1[As](=O)(O)c1ccccc1,inactive: -3.74%
12,O=C(O)COc1ccc([As](=O)(O)O)cc1[N+](=O)[O-],inactive: 0.3%
13,NC(=O)Nc1ccc([As](=O)(O)O)cc1,inactive: -2.25%
14,CN(C(=O)Cc1ccc(Cl)c(Cl)c1)[C@H]1CC[C@@]2(CCCO2)C[C@@H]1N1CCCC1,inactive: -0.335%
15,O=[N+]([O-])c1ccc2c(c1)nnn2O,inactive: 11.5%
16,CN(C)C(=O)c1cc([N+](=O)[O-])cc2c1-c1c(cc([N+](=O)[O-])cc1[N+](=O)[O-])C2=O,inactive: 13.8%
17,CCOP1(=S)c2c(C)nn(CCC#N)c2N=C(c2ccc(F)cc2)N1C (centres undefined),inactive: -15%
18,CN(C(=O)Cc1ccccc1)[C@@H]1CC[C@]2(CCCO2)C[C@H]1N1CCCC1,inactive: 3.56%
19,N#CCCN(C(=O)COC(=O)C(O)(c1ccccc1)c1ccccc1)c1ccc(F)cc1,inactive: -16.7%
20,CS(=O)(=O)c1ccc(Cl)c(NC(=O)COC(=O)C(O)(c2ccccc2)c2ccccc2)c1,inactive: 2.1%
21,O=[As](O)(O)c1cccnc1,inactive: -16.4%
22,COc1cc(C(=O)NCC2(N3CCOCC3)CCCCC2)cc(Cl)c1OC(C)C,inactive: -10.5%

row,SMILES,inhibition
1,O=C(OC1CN2CCC1CC2)c1ccc(Cl)cc1 (centres undefined),inactive: -11.1%
2,Cc1cccc(OCC(=O)OC2CN3CCC2CC3)c1 (centres undefined),inactive: -0.822%
3,O=[As](O)(c1cccc(O)c1)c1cccc(O)c1,inactive: -11.3%
4,CCCOP(=S)(Nc1nc(N)cc(=O)[nH]1)OCCC,inactive: -11.8%
5,Cc1ccc(NCCc2c([N+](=O)[O-])cc([N+](=O)[O-])cc2[N+](=O)[O-])cc1,inactive: 13.5%
6,CCOP(=O)(Nc1cccc2ccccc12)OCC,inactive: 13.2%
7,COc1cc(C2NCCC3(OCCO3)C2(C)C)cc(OC)c1OC (centres undefined),inactive: -5.25%
8,CCOP(=O)(Nc1ccc(C)cn1)OCC,inactive: -7.13%
9,CN(CCCl)Cc1cc(Cl)c(NC2=NCCN2)c(Cl)c1,inactive: -14.1%
10,CCOP(=O)(NC(=NC(C)c1ccccc1)NC(C)c1ccccc1)OCC (centres undefined),inactive: 18.9%
11,O=P1(Nc2ccccn2)COc2ccccc2OC1,inactive: -13.9%
12,CCC1=CC2Cc3nc4ccc(Cl)cc4c(N)c3C(C1)C2 (centres undefined),inactive: 14.4%
13,CC(C)(C)C(=O)NC(Sc1ncccn1)C(Cl)(Cl)Cl (centres undefined),inactive: -38.5%
14,Clc1n[nH]nc1-c1nn[nH][15n]1,inactive: -17.9%
15,COc1ccccc1CNC(=O)COC(=O)C(O)(c1ccccc1)c1ccccc1,inactive: -1.11%
16,CC1(CBr)Cn2c(nc3ccccc3c2=O)S1 (centres undefined),inactive: -2.64%
17,O=[As](O)(c1ccccc1Br)c1ccccc1Br,inactive: -2.87%
18,CC(C)/C=N\N=C(\N)N[N+](=O)[O-],inactive: -13.7%
19,CN(C(=O)Cc1ccc(Cl)c(Cl)c1)[C@@H]1CCCC[C@H]1N1CCCC1,inactive: -18%
20,CC1CCC(C(C)C)C(OP(=O)(Nc2ccccn2)c2ccccc2)C1 (centres undefined),inactive: 13%
